Test results published in patent US8633225B2, “Piperidinium compounds and cosmetic compositions containing them” (Beiersdorf AG, priority 2006, dated 2014).

How the values were obtained:
[1] = inhibiting or reducing perspiration (antihidrotic effect); statement only, no test described; conditions: qualitative statement
[2] = toxicological harmlessness / tolerance; statement only, no test described; conditions: qualitative statement

In the case of `C[N+]1(C)CCC(OC(=O)C(O)(c2ccccc2)C2CCCCC2)CC1` (stereo not drawn), the “efficacy in inhibiting perspiration” value [1] is reported as “effectiveness in reducing or even inhibiting perspiration” and the toxicological assessment [2] is reported as “toxicologically harmless”.

With `C[N+]1(C)CCC(OC(=O)C(O)(c2ccccc2)C2CCCC2)CC1` (stereo not drawn) the toxicological assessment [2] was “toxicologically harmless”.
